{"sequences": {"note": "The chains behind the UniProt entries cited, without tags or fusion partners. Where a name states a change or a piece, a line headed by the entry shows the natural chain unless it says otherwise. Residues count along the entry.", "UniProt P03372, 312-595": "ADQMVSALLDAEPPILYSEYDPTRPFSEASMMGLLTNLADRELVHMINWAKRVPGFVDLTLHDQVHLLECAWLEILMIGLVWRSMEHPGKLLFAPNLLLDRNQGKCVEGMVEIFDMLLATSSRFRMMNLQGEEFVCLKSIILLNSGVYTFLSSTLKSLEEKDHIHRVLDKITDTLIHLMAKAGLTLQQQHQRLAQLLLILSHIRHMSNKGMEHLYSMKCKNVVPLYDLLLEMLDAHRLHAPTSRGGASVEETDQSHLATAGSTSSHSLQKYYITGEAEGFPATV"}, "source": "paper PMC3210473", "about": "(Biotechnology and bioengineering, 2011)", "molecular_target": "sensor 6 (ERα 312-595) (Homo sapiens, UniProt P03372)", "assay": "split mVenus complementation, flow cytometry", "assay_type": "cell-based", "conditions": "transfected HeLa cells, up to […] ligand, […] h"}
{"smiles": "CC(C)(c1ccc(O)cc1)c1ccc(O)cc1", "note": "[bisphenol A]", "values": [{"measurement": "split mVenus complementation, flow cytometry", "result": "showed strong induction at micromolar levels, along with bisphenol A"}]}
